These are literature values, as cited in patent US8765940B2 (priority 2009, dated 2014).

Amino acid sequences for entries named in this document (tags omitted).
UniProt P42338, whole entry, species assumed: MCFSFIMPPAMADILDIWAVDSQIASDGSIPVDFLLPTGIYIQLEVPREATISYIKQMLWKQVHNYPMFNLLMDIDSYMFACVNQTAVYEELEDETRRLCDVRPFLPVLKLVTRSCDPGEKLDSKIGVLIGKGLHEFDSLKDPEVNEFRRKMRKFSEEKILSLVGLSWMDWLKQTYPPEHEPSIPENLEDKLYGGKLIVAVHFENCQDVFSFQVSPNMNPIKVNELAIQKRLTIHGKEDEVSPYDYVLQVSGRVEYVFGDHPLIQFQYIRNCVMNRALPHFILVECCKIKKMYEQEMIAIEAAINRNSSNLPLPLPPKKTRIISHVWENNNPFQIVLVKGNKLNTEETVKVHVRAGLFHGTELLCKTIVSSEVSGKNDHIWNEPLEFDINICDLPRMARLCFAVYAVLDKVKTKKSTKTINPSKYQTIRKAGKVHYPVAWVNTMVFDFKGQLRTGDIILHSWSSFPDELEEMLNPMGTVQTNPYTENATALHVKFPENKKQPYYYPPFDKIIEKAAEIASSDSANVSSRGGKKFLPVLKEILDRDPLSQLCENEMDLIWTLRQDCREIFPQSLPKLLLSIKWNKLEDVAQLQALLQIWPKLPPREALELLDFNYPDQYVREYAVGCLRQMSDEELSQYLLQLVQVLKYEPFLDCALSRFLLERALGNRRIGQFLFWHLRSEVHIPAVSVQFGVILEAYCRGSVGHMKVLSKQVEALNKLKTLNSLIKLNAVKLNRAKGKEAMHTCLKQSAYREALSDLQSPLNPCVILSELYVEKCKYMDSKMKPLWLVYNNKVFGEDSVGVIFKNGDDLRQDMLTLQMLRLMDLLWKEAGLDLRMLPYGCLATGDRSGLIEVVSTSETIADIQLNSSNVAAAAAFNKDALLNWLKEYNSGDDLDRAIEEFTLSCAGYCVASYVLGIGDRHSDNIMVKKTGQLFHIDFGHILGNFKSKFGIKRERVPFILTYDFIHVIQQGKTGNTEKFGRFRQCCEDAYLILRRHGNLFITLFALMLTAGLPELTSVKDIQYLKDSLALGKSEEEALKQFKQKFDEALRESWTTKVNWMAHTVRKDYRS

For this data set, the target named is p110β (Homo sapiens (Human), UniProt P42338). To be noted: read-out: potency on beta; cited from earlier work.

As for `Cc1cc(C(C)Nc2ccccc2)c2nc(N3CCOCC3)cc(=O)n2c1` (stereo not shown) [TGX-221], the IC50 was 7 nM.
